{
  "source": "paper PMC6985722",
  "about": "“A Randomized, Placebo-Controlled, Respiratory Syncytial Virus Human Challenge Study of the Antiviral Efficacy, Safety, and Pharmacokinetics of RV521, an Inhibitor of the RSV-F Protein” (Antimicrobial Agents and Chemotherapy, 2020)",
  "format_in_all_cases": "in vivo",
  "key": {"RSV-A Memphis-37b [1]": {"test_system": "RSV-A Memphis-37b", "assay": "RSV human challenge study: viral load in nasal wash by RT-qPCR", "details": "for AUC of viral load (RT-qPCR), difference in mean relative to placebo / Peak viral load (RT-qPCR), difference in mean relative to placebo / Time to peak viral load (RT-qPCR), difference in mean relative to placebo: ITT-A; for AUC of viral load (RT-qPCR), difference in mean relative to that of placebo (95% CI) / Peak viral load (RT-qPCR), difference in mean relative to that of placebo (95% CI) / Time to peak viral load (RT-qPCR), difference in mean relative to that of placebo (95% CI): ITT-I", "experimental": "(§1) Subjects were screened outside the RSV season for eligibility, including measurement of RSV-A Memphis-37b-specific neutralizing antibody titer, ≤90 days before virus challenge. Eligible subjects were admitted to the quarantine unit on day −2 or day −1 and were inoculated intranasally on day 0 with the challenge virus, RSV-A Memphis-37b (4 log10 PFU/ml, given as one 0.4-ml installation per naris), as previously described ([26]). Nasal wash sampling every 12 h for confirmation of RSV infection by qualitative integrated cycler PCR ([12], [19]) began on the morning of day 2. Treatment began 12 h (±1 h) after collection of a nasal wash sample confirming RSV infection or on the evening of day 5 if RSV infection remained unconfirmed by the morning of day 5.\n(§2) The study comprised two consecutive cohorts. Subjects in the first cohort received 200 mg RV521 or placebo; those in the second received 350 mg RV521 or placebo. […] In each cohort, subjects received 10 consecutive doses of RV521 or placebo, administered in a fasted state as oral capsules, approximately 12 h apart. Subjects were discharged on day 12 if nasopharyngeal swab samples tested negative by RSV rapid antigen assay (QuickVue RSV test; Quidel, San Diego, CA, USA). If such tests were positive or if a subject remained symptomatic, quarantine was extended to allow further observation. All subjects were evaluated on day 28 (±3 days).\n(§3) Twice-daily collection of nasal wash samples allowed measurement of viral load via RT-qPCR and quantitative culture. RT-qPCR results were reported as PFUe/ml when the standard curve included in each assay contained a known infectious amount (PFU) of RSV, as described previously ([30]). Subjects reported the occurrence and severity of symptoms three times daily using a 10-item subject symptom diary card as previously reported ([12]) (see Supplemental Methods). Throughout the quarantine period, used tissues were collected and weighed daily, and total nasal mucus weight was recorded. PK assessments were based on venous blood samples. Safety assessments included measurement of vital signs, standard 12-lead ECG recordings, spirometry, a complete physical examination, and a respiratory-directed physical examination. AEs were monitored daily, coded according to the Medical Dictionary for Regulatory Activities Version 20.0, and graded according to the National Cancer Institute Common Terminology Criteria for Adverse Events Version 4.0 (see Supplemental Methods for further details).\n(§4) The primary efficacy endpoint was AUC for RSV viral load, as measured by RT-qPCR, in nasal wash samples taken twice daily from just before the first dose until discharge (day 12). Viral load data were provided as log10 PFUe/ml; AUC (log10 PFUe/ml · h) was calculated using the trapezoid rule. Secondary efficacy endpoints related to viral load were AUC of RSV viral load, as assessed by quantitative culture, and the following measures, which were each assessed using both RT-qPCR and quantitative culture: peak viral load, time to peak viral load, and time to <1 log10 (for RT-qPCR) or undetectable (for quantitative culture) viral load (considered to occur at the first confirmed undetectable assessment after which no further virus was detected). Secondary efficacy endpoints related to clinical symptoms included AUC total symptom score; peak total symptom score; time to peak total symptom score; and the total weight of nasal mucus produced. Other secondary outcomes were safety, PK, and sequence detection of viral variants (see Supplemental Methods).\nThe primary efficacy analysis population (the ITT-I analysis set) comprised all randomized subjects who received challenge virus and at least one dose of study drug and met the criterion for laboratory-confirmed RSV infection (presence of detectable RSV). […]"}, "RSV-A Memphis-37b [2]": {"test_system": "RSV-A Memphis-37b", "assay": "RSV human challenge study: viral load in nasal wash by quantitative culture", "details": "for Peak viral load (quantitative culture), difference in mean relative to placebo: ITT-A; for Peak viral load (quantitative culture), difference in mean relative to that of placebo (95% CI): ITT-I", "experimental": "as §1, §2\nTwice-daily collection of nasal wash samples allowed measurement of viral load via RT-qPCR and quantitative culture. […] Throughout the quarantine period, used tissues were collected and weighed daily, and total nasal mucus weight was recorded. […] AEs were monitored daily, coded according to the Medical Dictionary for Regulatory Activities Version 20.0, and graded according to the National Cancer Institute Common Terminology Criteria for Adverse Events Version 4.0 (see Supplemental Methods for further details).\nas §4, with “Secondary efficacy endpoints related to clinical symptoms included AUC total symptom score; peak total symptom score; time to peak total symptom score; and the total weight of nasal mucus produced. Other secondary outcomes were safety, PK, and sequence detection of viral variants (see Supplemental Methods).” left out"}, "RSV-A Memphis-37b [3]": {"test_system": "RSV-A Memphis-37b", "assay": "RSV human challenge study: disease severity (total symptom score, nasal mucus weight)", "details": "for Daily nasal mucus weight, difference in LS mean relative to placebo / Peak total symptom score, difference in mean relative to placebo (95% CI) / Time to peak total symptom score, difference in mean relative to placebo (95% CI) / Time to resolution from peak total symptom score, difference in mean relative to placebo: ITT-A; for AUC total symptom score, reduction in mean relative to that of placebo / Daily nasal mucus weight, difference in LS mean relative to that of placebo / Peak total symptom score, difference in mean relative to that of placebo (95% CI) / Time to peak total symptom score, difference in mean relative to that of placebo (95% CI): ITT-I", "experimental": "as §1, §2, §3, §4\nAll statistical analyses were performed using two-sided testing. Student’s t tests were performed for normally distributed data with a constant variance; otherwise, the Satterthwaite t test or nonparametric tests were used. For the mucus weight analysis, the least-squares mean was calculated from a mixed model with repeated measures, adjusted for baseline mucus weight and treatment group as covariates and subject as a random effect."}},
  "data": [
    {"compound": "NCc1ccc2c(c1)nc(CN1C(=O)C3(CC3)c3ccc(F)cc31)n2CCCC(F)(F)F", "note": "[RV521]", "values": [
      {"measurement": "AUC of viral load (RT-qPCR), difference in mean relative to placebo", "setting": "RSV-A Memphis-37b [1]; 200 mg", "result": "–351.40 hours x log 10 PFUe/mL"},
      {"measurement": "Peak viral load (RT-qPCR), difference in mean relative to placebo", "setting": "RSV-A Memphis-37b [1]; 200 mg", "result": "–1.8 log10 PFUe/mL"},
      {"measurement": "Time to peak viral load (RT-qPCR), difference in mean relative to placebo", "setting": "RSV-A Memphis-37b [1]; 200 mg", "result": "–1.68 days"},
      {"measurement": "AUC of viral load (RT-qPCR), difference in mean relative to that of placebo (95% CI)", "setting": "RSV-A Memphis-37b [1]; 200 mg", "result": "−277.04 (−471.63, −82.46) log10 PFUe/ml · h"},
      {"measurement": "Peak viral load (RT-qPCR), difference in mean relative to that of placebo (95% CI)", "setting": "RSV-A Memphis-37b [1]; 200 mg", "result": "−1.30 (−2.47, −0.13) log10 PFUe/ml"},
      {"measurement": "Time to peak viral load (RT-qPCR), difference in mean relative to that of placebo (95% CI)", "setting": "RSV-A Memphis-37b [1]; 200 mg", "result": "−1.74 (−2.36, −1.11) days"},
      {"measurement": "AUC of viral load (RT-qPCR), difference in mean relative to placebo", "setting": "RSV-A Memphis-37b [1]; 350 mg", "result": "–377.60 hours x log 10 PFUe/mL"},
      {"measurement": "Peak viral load (RT-qPCR), difference in mean relative to placebo", "setting": "RSV-A Memphis-37b [1]; 350 mg", "result": "–1.85 log10 PFUe/mL"},
      {"measurement": "Time to peak viral load (RT-qPCR), difference in mean relative to placebo", "setting": "RSV-A Memphis-37b [1]; 350 mg", "result": "–0.98 days"},
      {"measurement": "AUC of viral load (RT-qPCR), difference in mean relative to that of placebo (95% CI)", "setting": "RSV-A Memphis-37b [1]; 350 mg", "result": "−316.14 (−506.71, −125.57) log10 PFUe/ml · h"},
      {"measurement": "Peak viral load (RT-qPCR), difference in mean relative to that of placebo (95% CI)", "setting": "RSV-A Memphis-37b [1]; 350 mg", "result": "−1.59 (−2.96, −0.23) log10 PFUe/ml"},
      {"measurement": "Time to peak viral load (RT-qPCR), difference in mean relative to that of placebo (95% CI)", "setting": "RSV-A Memphis-37b [1]; 350 mg", "result": "−1.06 (−1.96, −0.15) days"},
      {"measurement": "Peak viral load (quantitative culture), difference in mean relative to placebo", "setting": "RSV-A Memphis-37b [2]; 200 mg", "result": "–1.78 log10 PFU/mL"},
      {"measurement": "Peak viral load (quantitative culture), difference in mean relative to that of placebo (95% CI)", "setting": "RSV-A Memphis-37b [2]; 200 mg", "result": "−1.54 (−2.77, −0.30) log10 PFU/ml"},
      {"measurement": "Peak viral load (quantitative culture), difference in mean relative to placebo", "setting": "RSV-A Memphis-37b [2]; 350 mg", "result": "–1.79 log10 PFU/mL"},
      {"measurement": "Peak viral load (quantitative culture), difference in mean relative to that of placebo (95% CI)", "setting": "RSV-A Memphis-37b [2]; 350 mg", "result": "−1.67 (−2.95, −0.40) log10 PFU/ml"},
      {"measurement": "Daily nasal mucus weight, difference in LS mean relative to placebo", "setting": "RSV-A Memphis-37b [3]; 200 mg", "result": 52.94, "unit": "%"},
      {"measurement": "Peak total symptom score, difference in mean relative to placebo (95% CI)", "setting": "RSV-A Memphis-37b [3]; 200 mg", "result": "–3.22 (–6.03, –0.40)"},
      {"measurement": "Time to peak total symptom score, difference in mean relative to placebo (95% CI)", "setting": "RSV-A Memphis-37b [3]; 200 mg", "result": "–0.25 (–1.73, 1.22) days"},
      {"measurement": "Time to resolution from peak total symptom score, difference in mean relative to placebo", "setting": "RSV-A Memphis-37b [3]; 200 mg", "result": "–1.46 days"},
      {"measurement": "AUC total symptom score, reduction in mean relative to that of placebo", "setting": "RSV-A Memphis-37b [3]; 200 mg", "result": 70.84, "unit": "%"},
      {"measurement": "Daily nasal mucus weight, difference in LS mean relative to that of placebo", "setting": "RSV-A Memphis-37b [3]; 200 mg", "result": 45.90, "unit": "%"},
      {"measurement": "Peak total symptom score, difference in mean relative to that of placebo (95% CI)", "setting": "RSV-A Memphis-37b [3]; 200 mg", "result": "−2.72 (−5.22, −0.22)"},
      {"measurement": "Time to peak total symptom score, difference in mean relative to that of placebo (95% CI)", "setting": "RSV-A Memphis-37b [3]; 200 mg", "result": "0.25 (−1.24, 1.75) days"},
      {"measurement": "Daily nasal mucus weight, difference in LS mean relative to placebo", "setting": "RSV-A Memphis-37b [3]; 350 mg", "result": 61.76, "unit": "%"},
      {"measurement": "Peak total symptom score, difference in mean relative to placebo (95% CI)", "setting": "RSV-A Memphis-37b [3]; 350 mg", "result": "–3.54 (–6.37, –0.72)"},
      {"measurement": "Time to peak total symptom score, difference in mean relative to placebo (95% CI)", "setting": "RSV-A Memphis-37b [3]; 350 mg", "result": "–0.82 (–2.06, 0.43) days"},
      {"measurement": "Time to resolution from peak total symptom score, difference in mean relative to placebo", "setting": "RSV-A Memphis-37b [3]; 350 mg", "result": "–1.75 days"},
      {"measurement": "AUC total symptom score, reduction in mean relative to that of placebo", "setting": "RSV-A Memphis-37b [3]; 350 mg", "result": 78.42, "unit": "%"},
      {"measurement": "Daily nasal mucus weight, difference in LS mean relative to that of placebo", "setting": "RSV-A Memphis-37b [3]; 350 mg", "result": 55.74, "unit": "%"},
      {"measurement": "Peak total symptom score, difference in mean relative to that of placebo (95% CI)", "setting": "RSV-A Memphis-37b [3]; 350 mg", "result": "−3.12 (−5.59, −0.64)"},
      {"measurement": "Time to peak total symptom score, difference in mean relative to that of placebo (95% CI)", "setting": "RSV-A Memphis-37b [3]; 350 mg", "result": "−0.26 (−1.56, 1.03) days"}
    ]}
  ]
}
